Measurements published in patent publication US6291683A, “N-arloxyethyl-alkylamines for the treatment of depression” (American Home Products Corp, priority 2000, dated 2001).

Protein sequences, listed by entry. Tags and fused reporters are not part of them.
UniProt P31652, whole entry: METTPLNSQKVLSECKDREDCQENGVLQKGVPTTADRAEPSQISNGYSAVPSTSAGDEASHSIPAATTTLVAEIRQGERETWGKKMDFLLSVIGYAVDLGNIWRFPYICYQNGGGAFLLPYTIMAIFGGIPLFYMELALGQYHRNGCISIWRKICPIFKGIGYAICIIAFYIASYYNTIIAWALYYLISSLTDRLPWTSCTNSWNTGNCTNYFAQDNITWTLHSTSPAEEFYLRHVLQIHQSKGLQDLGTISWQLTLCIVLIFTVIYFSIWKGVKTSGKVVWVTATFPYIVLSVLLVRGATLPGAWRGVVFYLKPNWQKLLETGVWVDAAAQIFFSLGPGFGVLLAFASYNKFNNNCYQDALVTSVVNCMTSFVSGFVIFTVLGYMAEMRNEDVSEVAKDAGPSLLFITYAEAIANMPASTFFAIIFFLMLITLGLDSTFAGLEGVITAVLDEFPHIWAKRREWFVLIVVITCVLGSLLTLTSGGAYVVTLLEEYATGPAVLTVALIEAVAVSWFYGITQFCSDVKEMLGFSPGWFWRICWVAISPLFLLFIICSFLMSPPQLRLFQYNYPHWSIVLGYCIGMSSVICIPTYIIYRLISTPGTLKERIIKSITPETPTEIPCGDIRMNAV

Biological target: T1, serotonin transporter (Rattus norvegicus, UniProt P31652)
T1 construct: frontal cortical membranes prepared from male Sprague-Dawley rats; from tissue; host or cells: frontal cortex membranes, male Sprague-Dawley rats
Experiment: affinity for the serotonin transporter ([3H]-paroxetine binding, rat frontal cortical membranes)
Set-up: species or system rat (male Sprague-Dawley)
Conditions: [3H]-paroxetine 0.1 nM, 60 min, 25° C; Ki converted from IC50 (Cheng and Prusoff); read-out: ST (Ki)

Substance: [2-(5-Fluoro-1H-indol-3-yl)ethyl]-[2-(5-fluoro-2-methoxy-phenoxy)-ethyl]-amine [Example 4]
- Ki: 0.028 µM
